According to US11504310B2, “Aqueous microemulsion” (Firmenich SA, priority 2017, dated 2022):

Assays:
[1] = logP of fragrance raw materials and fragrances

| logP [1] | Compound | logP (physchem) |
| --- | --- | --- |
| 4.42 | CC(=O)OC1CCCCC1C(C)(C)C (racemic) [VERDOX™, (+ −)-2-TERT-BUTYL-1-CYCLOHEXYL ACETATE] |  |
|  | Cc1occc(=O)c1O [CORPS PRALINE, 3-HYDROXY-2-METHYL-4(4H)-PYRANONE] | 0.09 |
|  | CC(C)CC1CC(C)(O)CCO1 (racemic) [FLOROL ®, (+ −)-TETRAHYDRO-2-ISOBUTYL-4-METHYL-4(2H)-PYRANOL] | 2.16 |
